Experimental data: PMC1084349 (BMC Neuroscience, 2005)

Biological target: T1, rTas1r2-hTAS1R3 (UniProt Q7RTX0+Q9Z0R7)
T1 sequence (Q9Z0R7 20-843): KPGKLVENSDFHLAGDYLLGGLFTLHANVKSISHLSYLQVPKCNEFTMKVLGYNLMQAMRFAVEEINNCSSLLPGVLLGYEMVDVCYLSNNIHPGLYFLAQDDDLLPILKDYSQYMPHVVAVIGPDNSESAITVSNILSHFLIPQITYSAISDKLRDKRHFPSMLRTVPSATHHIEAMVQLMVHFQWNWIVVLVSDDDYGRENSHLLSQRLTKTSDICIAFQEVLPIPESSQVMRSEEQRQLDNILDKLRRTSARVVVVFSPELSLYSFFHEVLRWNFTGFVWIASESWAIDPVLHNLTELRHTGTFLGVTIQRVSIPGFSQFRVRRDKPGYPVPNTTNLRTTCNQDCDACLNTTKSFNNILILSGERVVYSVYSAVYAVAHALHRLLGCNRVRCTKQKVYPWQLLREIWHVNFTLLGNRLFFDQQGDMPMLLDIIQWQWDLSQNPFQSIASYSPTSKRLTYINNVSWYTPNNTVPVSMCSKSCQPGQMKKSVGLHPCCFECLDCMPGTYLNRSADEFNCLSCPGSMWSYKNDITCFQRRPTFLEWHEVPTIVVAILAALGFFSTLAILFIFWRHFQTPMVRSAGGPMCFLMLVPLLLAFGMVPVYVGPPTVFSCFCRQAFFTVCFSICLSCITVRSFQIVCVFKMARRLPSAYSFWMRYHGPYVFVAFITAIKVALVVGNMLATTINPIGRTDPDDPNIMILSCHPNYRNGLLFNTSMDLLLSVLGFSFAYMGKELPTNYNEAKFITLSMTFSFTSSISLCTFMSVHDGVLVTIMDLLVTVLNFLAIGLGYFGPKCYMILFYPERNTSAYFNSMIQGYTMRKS
T1 sequence (Q7RTX0 21-852): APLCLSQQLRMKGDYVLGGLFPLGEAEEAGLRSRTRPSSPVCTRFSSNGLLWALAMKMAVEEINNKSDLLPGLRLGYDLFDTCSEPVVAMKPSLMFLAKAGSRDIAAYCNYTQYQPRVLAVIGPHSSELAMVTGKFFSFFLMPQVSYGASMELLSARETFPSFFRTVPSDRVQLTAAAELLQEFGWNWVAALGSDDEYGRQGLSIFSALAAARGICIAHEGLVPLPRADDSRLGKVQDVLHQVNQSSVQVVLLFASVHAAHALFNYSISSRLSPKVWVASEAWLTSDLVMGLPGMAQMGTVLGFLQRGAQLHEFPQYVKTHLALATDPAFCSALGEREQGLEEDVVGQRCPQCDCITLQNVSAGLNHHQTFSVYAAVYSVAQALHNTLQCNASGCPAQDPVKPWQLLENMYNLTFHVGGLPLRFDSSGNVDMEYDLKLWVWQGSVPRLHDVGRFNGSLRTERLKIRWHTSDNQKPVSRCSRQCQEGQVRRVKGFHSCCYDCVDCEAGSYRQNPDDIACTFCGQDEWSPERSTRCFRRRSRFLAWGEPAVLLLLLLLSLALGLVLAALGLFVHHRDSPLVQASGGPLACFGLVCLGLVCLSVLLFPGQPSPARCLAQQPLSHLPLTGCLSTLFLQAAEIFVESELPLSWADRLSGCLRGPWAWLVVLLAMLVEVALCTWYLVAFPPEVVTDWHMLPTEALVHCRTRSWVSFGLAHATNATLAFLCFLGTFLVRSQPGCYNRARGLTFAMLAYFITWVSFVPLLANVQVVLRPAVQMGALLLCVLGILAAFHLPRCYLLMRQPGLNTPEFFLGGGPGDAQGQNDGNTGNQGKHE
Test: Calcium mobilization (FLIPR), interspecies combination
Settings: asp 15 mM; cyc 30 mM; neo 0.1 mM; sac 10 mM; suc 100 mM; stev 1 mM; markedly reduced amplitudes

With `O=C1NS(=O)(=O)c2ccccc21` [saccharin] the “activation of receptor (calcium response)” value was “failed to activate”.
